Data: paper PMC11992225, “Antibacterial compounds against non-growing and intracellular bacteria” (npj Antimicrobials and Resistance, 2025)

Tested on: intracellular S. flexneri 5a M90T in TC7 cells
Type: cell-based, Shigella flexneri
Settings: S. flexneri MIC in TSB versus intracellular IC50

## CO[C@@]12[C@H](COC(N)=O)C3=C(C(=O)C(C)=C(N)C3=O)N1C[C@@H]1N[C@@H]12 [Mitomycin C]
  MIC:IC50 ratio: > 2
